One compound from PubChem BioAssay AID493036 (Sanford-Burnham Center for Chemical Genomics, 2011) can be followed below.

Protein sequences, listed by entry. Tags and fused reporters are not part of them.
UniProt P30989, whole entry: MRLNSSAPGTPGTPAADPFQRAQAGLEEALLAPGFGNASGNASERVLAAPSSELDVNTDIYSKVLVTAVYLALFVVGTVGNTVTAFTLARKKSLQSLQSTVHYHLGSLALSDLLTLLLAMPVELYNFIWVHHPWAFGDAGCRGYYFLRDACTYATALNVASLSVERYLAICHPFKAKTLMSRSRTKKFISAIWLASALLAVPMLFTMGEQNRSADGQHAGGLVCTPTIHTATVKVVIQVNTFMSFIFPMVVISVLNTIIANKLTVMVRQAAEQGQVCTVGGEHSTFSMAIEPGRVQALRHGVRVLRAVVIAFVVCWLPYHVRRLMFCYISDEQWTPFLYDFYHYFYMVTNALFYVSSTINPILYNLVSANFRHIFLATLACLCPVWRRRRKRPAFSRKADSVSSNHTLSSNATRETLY

The entries are a selection whose mix differs from that of the whole data set. Calls of active or inactive are those of the source.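 How the source made its calls: active means activation at or above 40% of the spot to cytoplasm intensity ratio, with at least 20 cells analyzed; inconclusive means wells under 20 cells, flagged as cytotoxic or low count; inactive means the rest.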

This assay deals with Neurotensin receptor type 1 (Homo sapiens) (UniProt P30989). Briefly: agonists of NTR1, primary screen, imaging, U2OS cells, beta-arrestin-GFP, high content (AID 493036) (AID 493036).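 Further: 0% = DMSO without peptide and 100% = 100 nM NTR1 peptide.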 The settings on record: NTR1-U2OS beta-arrestin-GFP spot imaging, agonist mode; at 20 µM; active compounds read high.
For `CC(=O)c1ccc(N2CC2c2ccncc2)cc1` (stereo unspecified), the activation was inactive: -1.6%.
